These results are taken from US9776979B2, “EBI2 modulators” (Sanford-Burnham Medical Research Institute, priority 2013, dated 2017).

Protein sequences, listed by entry. Tags and fused reporters are not part of them.
UniProt P32249, whole entry: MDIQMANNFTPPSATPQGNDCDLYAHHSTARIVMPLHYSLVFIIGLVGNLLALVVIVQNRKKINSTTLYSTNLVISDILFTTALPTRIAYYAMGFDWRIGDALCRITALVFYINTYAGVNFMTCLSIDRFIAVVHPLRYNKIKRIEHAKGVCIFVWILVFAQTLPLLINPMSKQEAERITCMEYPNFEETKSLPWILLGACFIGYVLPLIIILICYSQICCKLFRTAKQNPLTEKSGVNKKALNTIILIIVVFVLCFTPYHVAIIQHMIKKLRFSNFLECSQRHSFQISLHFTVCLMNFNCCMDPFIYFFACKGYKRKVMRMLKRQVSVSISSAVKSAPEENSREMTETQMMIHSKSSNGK

In this experiment the target is EBI2 (Homo sapiens, UniProt P32249). The experiment can be described thus: Cell-based luminescent assay (EBI2 modulation). Particulars: read-out: IC50 nM; cell-based luminescence; 7a,25-OHC final assay concentration 80 nM; 60 minutes incubation.

Structures are written as SMILES.

As a reminder, the IC50 is the concentration that inhibits the measured activity by half. Turning to `O=C(/C=C/c1ccc(Br)cc1)N1CCC(Nc2ccc(Cl)cc2)CC1`, the IC50 is less than 100 nM.
